# Apparent affinities of Ab-95 variants for a coronavirus HR2 peptide

From the AlphaSeq antibody data of Engelhart et al. 2022 (doi:10.1038/s41597-022-01779-4), copy in the FLAb collection.

Target: peptide PDVDLGDISGINAS, taken from heptad repeat 2 (HR2) of SARS-CoV-2 spike.

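Phage display of a naive human antibody library on the peptide gave the parent. AAYL52 was designed without a model: most single CDR substitutions and a random sample of double and triple ones. In AlphaSeq, yeast of one mating type display the scFv and yeast of the other type display the target. Binding brings cells together so that they mate, and sequencing counts the barcode pairs among the diploids. Each replicate has its own calibration line, from reference interactions of the BCL2 family. There are three technical replicates.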

Ab-95 is the parent antibody, in scFv form: VH, then a 15-residue (Gly4Ser)3 linker, then VL. The heavy chain is unchanged in all variants.
VH: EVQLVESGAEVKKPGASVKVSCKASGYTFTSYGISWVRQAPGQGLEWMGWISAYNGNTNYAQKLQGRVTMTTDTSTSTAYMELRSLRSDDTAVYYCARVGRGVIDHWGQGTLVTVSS
VL: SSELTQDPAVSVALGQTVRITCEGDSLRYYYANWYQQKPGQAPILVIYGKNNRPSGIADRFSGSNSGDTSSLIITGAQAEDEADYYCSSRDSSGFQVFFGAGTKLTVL

Changes read parent residue, position, new residue, counted from the first residue of the VL shown. Every variant below is changed at Q96 of the VL (sequential numbering). Values are apparent Kd, the geometric mean of the replicates that gave a signal; lower means stronger binding. "nd" means that the variant was in the library but no mating with the target was seen in any replicate; the authors take this as a sign of poor binding, and no number exists.

- L27K+N33K+Q96R: 50 µM (2 of 3 replicates)
- Y29I+P54V+Q96M: 1.9 µM (2 of 3 replicates)
- D25P+Q96R+F98R: 600 nM (3 of 3 replicates)
- L27K+S93E+Q96E: 6.0 µM (1 of 3 replicates)
- L27G+D91L+Q96L: 1.2 mM (1 of 3 replicates)
- D91S+F95K+Q96C: nd (0 of 3 replicates)
- P54K+S92L+Q96F: 16 µM (1 of 3 replicates)
- N33F+S92Q+Q96E: 59 µM (1 of 3 replicates)
- R53V+S92E+Q96C: 3.7 µM (1 of 3 replicates)
- G24Q+N33V+Q96C: 3.4 µM (1 of 3 replicates)
- S88A+S89I+Q96H: 21 µM (2 of 3 replicates)
- A32L+N33C+Q96F: 11 µM (2 of 3 replicates)
- S26E+F95N+Q96Y: 2.1 µM (1 of 3 replicates)
- S89Y+S92N+Q96C: 180 nM (3 of 3 replicates)
- Y29M+N33A+Q96N: 110 µM (1 of 3 replicates)
- Y30N+K50E+Q96Y: 2.7 nM (3 of 3 replicates)
- N51M+N52Q+Q96K: nd (0 of 3 replicates)
- D25K+A32H+Q96L: 1.3 µM (3 of 3 replicates)
- L27V+S88D+Q96S: 24 µM (1 of 3 replicates)
- K50M+F95Y+Q96T: 350 nM (3 of 3 replicates)
- S55D+S93T+Q96H: 46 nM (3 of 3 replicates)
- N52H+F95Y+Q96W: 850 nM (2 of 3 replicates)
- D91C+G94D+Q96K: 4.8 µM (3 of 3 replicates)
- Y31L+K50I+Q96A: 290 nM (3 of 3 replicates)
- R28C+Y29V+Q96W: 56 µM (1 of 3 replicates)
- Y31C+G94C+Q96F: nd (0 of 3 replicates)
- Y29F+Y30P+Q96P: 180 nM (3 of 3 replicates)
- S92R+Q96R: 1.2 µM (3 of 3 replicates)
- N52G+S93W+Q96N: 6.1 µM (3 of 3 replicates)
- D25W+S92D+Q96G: 2.0 µM (2 of 3 replicates)
- S88W+Q96C: 860 nM (3 of 3 replicates)
- S92P+Q96E+F98M: 640 nM (3 of 3 replicates)
- S26H+Y30C+Q96E: 260 nM (3 of 3 replicates)

A selection of 2 entries from above:

changes,Kd,detected
S88A+S89I+Q96H,21 µM,2 of 3
Y31C+G94C+Q96F,nd,0 of 3

Nonspecific signal, from three strains lacking the peptide, appeared in 28% of pairings of library AAYL52, centred on 8.2 µM (5% of these signals below 800 nM); values are not corrected for it. In this assay the parent's reference entry averaged 200 nM; its copy inside this library read 180 nM.